# Earlier results, collected in patent US20140141213A1, “PHOTOCURABLE INK COMPOSITION, INK JET RECORDING METHOD, RECORDED MATTER, INK SET, INK CARTRIDGE, AND RECORDING APPARATUS” (Seiko Epson Corporation, priority 2009, published 2014).
# Conditions: primary irritation index
substance,measurement,value
Glycerin PO-modified triacrylate,P.I.I,0.8
